Measured values reported in PubChem BioAssay AID652257 (The Scripps Research Institute Molecular Screening Center, 2013).
This is a selection; strong and weak results do not stand in their true shares. Activity calls are given as the source filed them.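 The calls were made as follows: active = inhibition above about 21% made by adding two undisclosed values (limit read from the data); inactive = the rest.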

Amino acid sequences for entries named in this document (tags omitted).
UniProt Q99873, whole entry: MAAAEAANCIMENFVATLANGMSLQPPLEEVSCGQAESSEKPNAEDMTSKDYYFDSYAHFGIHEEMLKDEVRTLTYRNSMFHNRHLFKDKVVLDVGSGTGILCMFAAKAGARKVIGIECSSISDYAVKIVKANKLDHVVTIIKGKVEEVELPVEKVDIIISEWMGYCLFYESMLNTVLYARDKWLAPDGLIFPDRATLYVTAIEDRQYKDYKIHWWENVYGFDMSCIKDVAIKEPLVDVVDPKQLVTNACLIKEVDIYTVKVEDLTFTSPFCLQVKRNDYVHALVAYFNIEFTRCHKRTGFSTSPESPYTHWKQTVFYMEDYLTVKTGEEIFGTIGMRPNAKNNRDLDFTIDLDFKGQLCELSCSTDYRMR

Biological target: Protein arginine N-methyltransferase 1 (Homo sapiens) (UniProt Q99873)
Assay: PRMT1 methyltransferase inhibitors, primary screen, biochemical, fluorescence polarization (AID 652257)
Settings: recombinant PRMT1, activity-based probe fluorescence polarization; at 2.79 µM; hits give high values

| Structure (SMILES) | inhibition |
| --- | --- |
| O=[N+]([O-])c1cc([N+](=O)[O-])c(Nc2ccc(Cl)cc2)c([N+](=O)[O-])c1 | inactive: 0.35% |
| CP(=O)(Nc1ccccc1F)Oc1ccccc1 (stereo not given) | inactive: 1.66% |
| CC(C)c1ccc(OP(C)(=O)Nc2ccc(SC(F)(F)F)cc2)cc1 (stereo not given) | inactive: -1.61% |
| O=[N+]([O-])c1cc([N+](=O)[O-])c(Nc2ccccn2)c([N+](=O)[O-])c1 | inactive: -1.69% |
| Cc1c(NP(C)(=O)Oc2ccc(C(C)C)cc2)c(=O)n(-c2ccccc2)n1C (stereo not given) | inactive: -2.9% |
| COc1ccccc1OP(C)(=O)Nc1ccc(C)cc1C (stereo not given) | inactive: 1.83% |
| CP(=O)(Nc1ccccn1)Oc1ccccc1 (stereo not given) | inactive: -0.15% |
| CCc1ccc(OP(C)(=O)O)cc1 | inactive: -0.82% |
| COc1ccccc1OP(C)(=O)Nc1ccc(Br)cc1 (stereo not given) | inactive: 0.39% |
| COc1ccc(OP(C)(=O)Nc2ccccn2)cc1 (stereo not given) | inactive: -0.34% |
| CN(C)CCOC(=O)C(O)(c1ccccc1)C1CCCC1 (stereo not given) | inactive: 3.62% |
| CP(=O)(OCCOc1ccccc1)OCCOc1ccccc1 | inactive: -1.99% |
| CP(=O)(Nc1ccc(Cl)cc1Cl)Oc1ccccc1 (stereo not given) | inactive: 5% |
| CCCCCCCCCCCCCCCC1C[N+](C)(C)CCOP(C)(=O)O1 (stereo not given) | inactive: -4.62% |
| Cc1cc(C)cc(OP(C)(=O)Nc2cccc(C(F)(F)F)c2)c1 (stereo not given) | inactive: 1.35% |
| O=C1C(O)=C([N+](=O)[O-])C(=O)C(O)=C1[N+](=O)[O-] | inactive: 5.99% |
| COc1ccccc1OP(C)(=O)Nc1ccc(C)c(C)c1 (stereo not given) | inactive: -2.46% |
| COc1ccc(OP(C)(=O)Nc2ccccc2Br)cc1 (stereo not given) | inactive: 1.66% |
| Nc1ccc2c(ccc3cccnc32)n1.O=[N+]([O-])c1cc([N+](=O)[O-])c(O)c([N+](=O)[O-])c1 | inactive: 3.56% |
| CCOC(=O)c1ccc(NP(C)(=O)Oc2ccc(Cl)cc2)cc1 (stereo not given) | inactive: -2.1% |
| CP(=O)(OC12CC3CC(CC(C3)C1)C2)OC12CC3CC(CC(C3)C1)C2 | inactive: 0.59% |
| CC(C)(C)c1ccc(OP(C)(=O)O)cc1 | inactive: 0.95% |
| COc1ccccc1OP(C)(=O)Nc1ccccc1Br (stereo not given) | inactive: -2.15% |
| CP(=O)(Nc1ccc(Cl)cc1)Oc1ccc(F)cc1 (stereo not given) | inactive: 1.83% |
| CN(C)C(=O)c1c([N+](=O)[O-])cc([N+](=O)[O-])cc1[N+](=O)[O-] | inactive: 1.23% |

| Structure (SMILES) | inhibition |
| --- | --- |
| COc1ccc(OP(C)(=O)Nc2ccc(Br)cc2)cc1 (stereo not given) | inactive: 2.02% |
| CCN(CC)CC(O)COC(=O)C(O)(c1ccccc1)C1CCCCC1 (stereo not given) | inactive: -1.39% |
| O=C(OCCCN1CCCC1)C(O)(c1ccccc1)C1CCCCC1 (stereo not given) | inactive: 2.17% |
| COc1ccccc1OP(C)(=O)Nc1c(C)n(C)n(-c2ccccc2)c1=O (stereo not given) | inactive: 0.47% |
| CCc1ccc(OP(C)(=O)Nc2cccnc2)cc1 (stereo not given) | inactive: 1.42% |
| CP(=O)(Oc1ccccc1)N1CCOC1=O (stereo not given) | inactive: 1.24% |
| O=[N+]([O-])c1cc([N+](=O)[O-])c(O)c([N+](=O)[O-])c1.c1ccc(Oc2ccncc2)cc1 | inactive: 6.92% |
| CCOC(=O)c1ccc(NP(C)(=O)Oc2ccc(OC)cc2)cc1 (stereo not given) | inactive: 1.34% |
| CCOP(C)(=S)SCC(=O)NC(C)C(=O)O (stereo not given) | inactive: -0.78% |
| CP(=O)(Nc1ccccn1)Oc1ccc(Cl)cc1 (stereo not given) | inactive: 1.83% |
| CP(=O)(Oc1ccccc1)OC(c1ccccc1)C(F)(F)F (stereo not given) | inactive: -2.47% |
| CP(=O)(Nc1ccc(SC(F)(F)F)cc1)Oc1ccc(Cl)cc1 (stereo not given) | inactive: 3.62% |
| Cc1cccc(C)c1OP(C)(=O)Nc1ccc(SC(F)(F)F)cc1 (stereo not given) | inactive: -0.17% |
| Cc1cc(C)cc(OP(C)(=O)Nc2ccc(SC(F)(F)F)cc2)c1 (stereo not given) | inactive: 3.38% |
| CCc1ccc(OP(C)(=O)N2CCN(c3ccc([N+](=O)[O-])cc3)CC2)cc1 (stereo not given) | inactive: 2.33% |
| CP(=O)(NC(=O)Nc1ccccc1)Oc1ccccc1 (stereo not given) | inactive: -2.77% |
| CP(=S)(Nn1cnnc1)Oc1ccccc1 (stereo not given) | inactive: -5.77% |
| CP(=O)(Nc1ccccc1Br)Oc1ccccc1 (stereo not given) | inactive: 1.02% |
| COc1ccccc1OP(C)(=O)Nc1ccccc1 (stereo not given) | inactive: 0.17% |
| Cc1ccc(NP(C)(=O)Oc2ccccc2)c(C)c1 (stereo not given) | inactive: 3.27% |
| COc1ccccc1OP(C)(=O)Nc1ccc(C)cc1 (stereo not given) | inactive: 2.58% |
| CCOC(=O)c1ccc(NP(C)(=O)Oc2ccccc2)cc1 (stereo not given) | inactive: -2.18% |
| Cc1cc(C)cc(OP(C)(N)=O)c1 (stereo not given) | inactive: -1.7% |
| COc1ccc(OP(C)(=O)Nc2cccc(F)c2)cc1 (stereo not given) | inactive: -1.74% |
| COc1ccccc1OP(C)(=O)Nc1cc(Cl)ccc1C (stereo not given) | inactive: 1.43% |

| Structure (SMILES) | inhibition |
| --- | --- |
| O=[N+]([O-])c1cc([N+](=O)[O-])c(Nc2cccnc2)c([N+](=O)[O-])c1 | inactive: 3.65% |
| O=[N+]([O-])c1ccc2c(c1)C=Nc1ccccc1O2 | inactive: 0.58% |
| Cc1cccc(C)c1OP(C)(N)=O (stereo not given) | inactive: -2.68% |
| CC(C)(C)c1ccc(OP(C)(=O)Nc2ccc(SC(F)(F)F)cc2)cc1 (stereo not given) | inactive: -0.16% |
| COc1ccccc1-c1ccccn1.O=[N+]([O-])c1cc([N+](=O)[O-])c(O)c([N+](=O)[O-])c1 | inactive: 0.69% |
| CCN(CC)CCCOC(=O)C(O)(c1ccccc1)c1ccccc1 | inactive: 7.68% |
| Cc1ccc(C)c(NP(C)(=O)Oc2ccccc2)c1 (stereo not given) | inactive: -0.81% |
| CP(=O)(Nc1cccc(Br)c1)Oc1ccccc1 (stereo not given) | inactive: 1.42% |
| Cc1cc(C)cc(OP(C)(=O)Nc2ccccn2)c1 (stereo not given) | inactive: -0.36% |
| COc1ccccc1OP(C)(=O)Nc1cccc(Br)c1 (stereo not given) | inactive: -0.79% |
| CCOC(=O)c1ccc(NP(C)(=O)Oc2cc(C)cc(C)c2)cc1 (stereo not given) | inactive: -0.32% |
| Cc1cc(C)cc(OP(C)(=O)Nc2ccc(C)cc2C)c1 (stereo not given) | inactive: -0.38% |
| CC1=NCCc2c1[nH]c1ccccc21.O=[N+]([O-])c1cc([N+](=O)[O-])c(O)c([N+](=O)[O-])c1 | inactive: 2.94% |
| O=C(O)c1cccc(Nc2c([N+](=O)[O-])cc([N+](=O)[O-])cc2[N+](=O)[O-])c1 | inactive: 1.35% |
| CN1CCCCC1COC(=O)C1(O)c2ccccc2CCc2ccccc21 (stereo not given) | inactive: -3.99% |
| COc1ccccc1OP(C)(=O)Nc1c(C)cccc1C (stereo not given) | inactive: -0.5% |
| COc1ccc(-c2ccccn2)cc1.O=[N+]([O-])c1cc([N+](=O)[O-])c(O)c([N+](=O)[O-])c1 | inactive: -2.27% |
| CP(=O)(Nc1ccc(SC(F)(F)F)cc1)Oc1ccccc1 (stereo not given) | inactive: -1.9% |
| CCCOc1ccc(NP(C)(=O)Oc2ccc(Cl)cc2)cc1 (stereo not given) | inactive: 1.25% |
| CCOC(=O)C(CC)C1=NC(C)(C)Cc2ccccc21.O=[N+]([O-])c1cc([N+](=O)[O-])c(O)c([N+](=O)[O-])c1 (stereo not given) | inactive: -0.37% |
| O=[N+]([O-])c1cc([N+](=O)[O-])c(Nc2nnnn2CCO)c([N+](=O)[O-])c1 | inactive: 3.62% |
| O=[N+]([O-])c1cc([N+](=O)[O-])c(-c2cnn(-c3ccccc3)c2)c([N+](=O)[O-])c1 | inactive: 7.8% |
| Cc1nc2ccc3ccccc3c2s1.O=[N+]([O-])c1cc([N+](=O)[O-])c(O)c([N+](=O)[O-])c1 | inactive: 18.8% |
| O=[N+]([O-])c1cc([N+](=O)[O-])c(-n2nnc3ccccc32)c([N+](=O)[O-])c1 | inactive: 3.99% |
| CN(Cc1cccnc1)C(=O)COc1ccc(Cl)c(Cl)c1.O=[N+]([O-])c1cc([N+](=O)[O-])c(O)c([N+](=O)[O-])c1 | inactive: 1.16% |
